Results from ChEMBL document CHEMBL1123882, “Potential antitumor agents. 51. Synthesis and antitumor activity of substituted phenazine-1-carboxamides” (J Med Chem, 1987).

What follows are compounds tested on Calf thymus DNA. Settings: Bos taurus.

Structure (SMILES)	Log K
Cc1cc(C(=O)NCCN(C)C)c2nc3ccccc3nc2c1	6.48 and 6.55
O=C(NCCN1CCOCC1)c1cccc2nc3ccccc3nc12	6.42 and 6.49
COc1cccc2nc3c(C(=O)NCCN(C)C)cccc3nc12	6.63 and 6.47
CN(C)CCNC(=O)c1cccc2nc3c(ccc4ccccc43)nc12	7.75 and 7.63
CCN(CC)CCNC(=O)c1cccc2nc3ccccc3nc12	6.4 and 6.26
CN(C)CCNC(=O)c1cc(Cl)cc2nc3ccccc3nc12	7.08 and 7.22
CN(C)CCNC(=O)c1cccc2nc3c(Cl)cccc3nc12	6.76 and 6.93
Cc1cccc2nc3c(C(=O)NCCN(C)C)cccc3nc12	6.68 and 6.74
Cc1cccc2nc3cccc(C(=O)NCCN(C)C)c3nc12	6.76 and 6.93
CN(C)CCCNC(=O)c1cccc2nc3ccccc3nc12	6.29 and 6.14
Cc1ccc(C(=O)NCCN(C)C)c2nc3ccccc3nc12	6.78 and 6.73
CN(C)CCCCNC(=O)c1cccc2nc3ccccc3nc12	6.3 and 6.34
CN(C)CCNC(=O)c1cccc2nc3ccc4ccccc4c3nc12	7.12 and 6.7
COc1ccc(C(=O)NCCN(C)C)c2nc3ccccc3nc12	6.58 and 6.6
CN(C)CCNC(=O)c1c(Cl)ccc2nc3ccccc3nc12	6.24 and 6.22
CN(C)CCNC(=O)c1cccc2nc3ccccc3nc12	6.58 and 6.86
O=C(NCCNCCO)c1cccc2nc3ccccc3nc12	6.32 and 6.5
Cc1ccc2nc3cccc(C(=O)NCCN(C)C)c3nc2c1	6.43 and 6.82
COc1ccc2nc3c(C(=O)NCCN(C)C)cccc3nc2c1	6.4 and 6.3
Cc1ccc2nc3c(C(=O)NCCN(C)C)cccc3nc2c1	6.8 and 6.82
COc1ccc2nc3cccc(C(=O)NCCN(C)C)c3nc2c1	6.48 and 6.96
CN(C)CCNC(=O)c1cc2ccccc2c2nc3ccccc3nc12	7.63 and 7.29
COc1cc(C(=O)NCCN(C)C)c2nc3ccccc3nc2c1	6.96 and 7
COc1ccc2nc3ccccc3nc2c1C(=O)NCCN(C)C	6.65 and 6.7
COc1cccc2nc3cccc(C(=O)NCCN(C)C)c3nc12	6.59 and 7

Where “and” joins values, the source holds several entries; their conditions need not be identical. Identical values can stand only once.
